Values quoted from earlier work, collected in patent publication US20130225597A1, “USE OF PHOSPHODIESTERASE INHIBITOR TO ENHANCE POST-SURGICAL ERECTION IN MEN UNDERGOING RADICAL PROSTATECTOMY” (University of Medicine and Dentistry of New Jersey, priority 2010, published 2013).

Tested on: spinal motor and non-motor neurons
Conditions: cited from earlier work

OCCN(CCO)c1nc(N2CCCCC2)c2nc(N(CCO)CCO)nc(N3CCCCC3)c2n1 [dipyridamole]
protection against acute Reactive Oxygen Species-induced neurotoxicity: protect
